Measured values published in patent US6767887B1, “Exendin analogues, processes for their preparation and medicaments containing them” (Roche Diagnostics GmbH, priority 1999, dated 2004).

Molecular target: T1, receptor for GLP-1-(7-36)-NH2 on B cells (clonal B cell line INS-1) (Rattus norvegicus, UniProt P32301)
T1 construct: endogenous in cells; host or cells: INS-1 cells (whole detached cells)
T1 sequence (P32301 22-463): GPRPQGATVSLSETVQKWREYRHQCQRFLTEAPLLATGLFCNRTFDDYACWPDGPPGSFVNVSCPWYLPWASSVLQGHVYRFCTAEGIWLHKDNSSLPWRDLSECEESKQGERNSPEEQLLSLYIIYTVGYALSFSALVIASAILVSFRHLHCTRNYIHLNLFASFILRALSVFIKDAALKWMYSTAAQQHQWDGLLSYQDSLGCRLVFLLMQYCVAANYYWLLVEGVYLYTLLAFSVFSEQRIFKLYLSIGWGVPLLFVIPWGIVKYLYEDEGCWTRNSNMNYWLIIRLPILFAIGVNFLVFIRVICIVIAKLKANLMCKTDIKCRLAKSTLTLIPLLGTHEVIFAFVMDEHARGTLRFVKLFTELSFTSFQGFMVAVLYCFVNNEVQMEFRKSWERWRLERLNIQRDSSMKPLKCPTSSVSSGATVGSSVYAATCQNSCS
Assay: Competition with 125I-GLP1-(7-36)-NH2 on INS-1 cells (receptor affinity)
Format: binding
Conditions: competition with 125I-GLP1-(7-36)-NH2, INS-1 cells; read-out: Kd ± SD
Procedure: The detached cells are taken up and suspended in Krebs-Ringer buffer (25 mM Tris, 120 mM NaCl, 1.2 mM MgSO4, 5 mM KCl, 1 mM Na-EDTA, 15 mM CH3COONa adjusted to pH 7.4 and supplemented with 1% HSA and 0.1% bacitracin). […] Subsequently it is incubated for 30 minutes at 37° C., centrifuged for 4 minutes at 13,000 rpm, washed three times with buffer and the radioactivity bound to the pellet (γ-counter) is measured. Competition curves were obtained by incubation with 10 different dilutions of the peptide to be tested (10^−10-10^−6 M in Krebs-Ringer buffer).

## CCCC[C@H](NC(=O)[C@H](CCC(N)=O)NC(=O)[C@H](CCCCN)NC(=O)[C@H](CO)NC(=O)[C@H](CC(C)C)NC(=O)[C@H](CC(=O)O)NC(=O)[C@H](CO)NC(=O)[C@@H](NC(=O)[C@H](Cc1ccccc1)NC(=O)[C@@H](NC(=O)CNC(=O)[C@H](CC(=O)O)NC(=O)[C@H](CO)NC(=O)[C@@H](N)Cc1c[nH]cn1)[C@@H](C)O)[C@@H](C)O)C(=O)N[C@@H](CCC(=O)O)C(=O)N[C@@H](CCC(=O)O)C(=O)N[C@@H](CCC(=O)O)C(=O)N[C@@H](C)C(=O)N[C@H](C(=O)N[C@@H](CCCNC(=N)N)C(=O)N[C@@H](CC(C)C)C(=O)N[C@@H](Cc1ccccc1)C(=O)N[C@H](C(=O)N[C@@H](CCC(=O)O)C(=O)N[C@@H](Cc1c[nH]c2ccccc12)C(=O)N[C@@H](CC(C)C)C(=O)N[C@@H](CCCCN)C(=O)N[C@@H](CC(N)=O)C(=O)NCC(=O)N[C@@H](Cc1ccc(O)cc1)C(N)=O)[C@@H](C)CC)C(C)C [compound 69]
  Kd: 0.56 ± 0.08 nM
